Antibody variant affinities, Ab-14 heavy chain, assay B

Binding partner: SARS-CoV-2 spike HR2 peptide, sequence PDVDLGDISGINAS.

Each scFv is VH, a (GGGGS)3 linker, VL, as in the parent Ab-14, and differs from it in the CDRs of the heavy chain only.
VH: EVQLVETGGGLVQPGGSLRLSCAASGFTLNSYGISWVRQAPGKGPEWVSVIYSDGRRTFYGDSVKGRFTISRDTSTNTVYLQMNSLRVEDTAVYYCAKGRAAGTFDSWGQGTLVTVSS
VL: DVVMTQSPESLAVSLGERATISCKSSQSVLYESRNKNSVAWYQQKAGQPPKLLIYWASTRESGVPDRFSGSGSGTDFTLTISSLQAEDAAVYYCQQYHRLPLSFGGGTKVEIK

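This is the validation round: designs drawn from the data on random variants, tested in the same kind of assay. Several design methods are mixed in this list. The scFvs were displayed on barcoded MATa yeast, the peptide on MATalpha yeast. After mating in shaken culture at 30 °C for 16 h, diploids were selected and their barcode pairs sequenced. Scores were corrected for input abundance and mapped to Kd with protein pairs of known affinity run in the same pool. Each pool was mated in six replicate cultures.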

Each variant is given by its three heavy chain CDRs, as the data file delimits them; those of the parent are GFTLNSYGIS, VIYSDGRRTFYGDSVK, GRAAGTFDS.
This list holds designs with more than six substitutions.
Scale: log10 of Kd in nM, estimated from mating counts; low values are strong binders.
An entry "n.d." has no value in the source: the pair was not observed among the diploids in that replicate. This suggests poor binding but is not conclusive.
Values of this round are not directly comparable with the first-round values of the same sequences.

CDR-H1	CDR-H2	CDR-H3	log10 Kd, replicates
GDGLQEYGIS	VIYADGFRSSYANSVK	GTNTGIFMV	n.d. n.d. n.d. n.d. n.d. n.d.
GFDLNEYGIS	VIYADGRRSFYADSVK	GQNAGTFDS	0.15 -0.11 -0.23 -1.45 -0.17 1.35
GFDLNEYGIS	VIYADGRRTFYSDSVK	GEAAGTFVL	-0.08 1.15 -0.43 -0.42 -0.55 -0.27
GIDLEKYGIS	VIYADGMRASYADAVK	GRLSGTFYI	n.d. n.d. n.d. n.d. n.d. n.d.
GDDIDEYGIS	VIYADGHRSQYSEQVK	GYNAGTLDE	n.d. n.d. n.d. n.d. n.d. n.d.
GFDLNEYGIS	VIYADGMRTVYADSVK	GNVAGTFDT	-0.39 -0.77 -0.50 -1.07 -0.44 -0.34
GFDLNEYGIS	VIYADGVRTFYTDSVK	GNVAGTFDV	-0.93 -0.46 -0.75 -0.84 -0.77 -0.30
GFDLKEYGIS	VIYADGMRAGYADNVK	GEWGGKFLV	n.d. n.d. n.d. n.d. n.d. n.d.
GFDLEDYGIS	VIYADGRRTYYADSVK	GEAAGTFDL	0.66 -0.66 -0.19 0.72 -0.43 -0.72
GFDLNEYGIS	VIYADGKRQAYADSVK	GNVAGTFDV	-0.30 -0.28 -0.25 -0.56 -0.35 -0.44
GKNLDEYGVS	VIYADGKRTAYTNNFK	GGNAGFFKS	n.d. n.d. n.d. n.d. n.d. n.d.
GADLNEMGIS	VIYADGDRKAYQDAVK	GDVSGDFDE	n.d. n.d. n.d. n.d. n.d. n.d.
GIDLEEYGIS	VIYADGMRKAYINSVK	GGDSVTTFV	n.d. n.d. n.d. n.d. n.d. n.d.
GFDLNEYGIS	VIYADGMRTAYVDSVK	GNNAGTFDM	0.49 1.33 0.47 0.85 0.21 0.52
GFDLDEYGIS	VIYADGSRTAYADSVK	GEVAGTFDM	-0.13 -0.06 -0.34 -0.14 0.03 0.17
GFDLNEYGIS	VIYADGMRTAYVDSVK	GEVAGTFDT	0.37 0.34 0.10 -0.04 0.42 0.29
GFNLEEYGIS	VIYADGVRASYAENVK	AGGNFIAIG	n.d. n.d. n.d. n.d. n.d. n.d.
GFDLNEYGIS	VIYADGMRTSYADSVK	GSNAGTFDV	-0.92 -1.39 -0.70 -1.71 0.06 -1.19
GFDLEEYGIS	VIYADGMRTQYINAVK	GIIGDIMDL	n.d. n.d. n.d. n.d. n.d. n.d.
GFDIDEYGIS	VIYADGIRQFYQDKVK	GNVTGMFDT	1.96 1.42 1.21 2.08 1.49 1.36
GFDLNEYGIS	VIYADGQRTFYSDSVK	GQNAGTFDV	-0.41 -0.37 -0.78 -0.98 -0.70 -0.35
GFDLNEYGIS	VIYADGQRTFYADSVK	GNQAGTFDS	0.12 0.03 0.29 -0.09 0.70 0.41
GFDLNEYGIS	VIYADGSRTAYSDSVK	GQVAGTFDV	-0.52 -0.25 -0.15 -0.67 -0.64 -0.71
GFDLEEYGIS	VIYADGLRQYAQDNVK	GLRSGMGIT	n.d. n.d. n.d. n.d. n.d. n.d.
GFDLEEYGIS	VIYADGQRTAYADSVK	GNVAGTFDL	0.01 -0.20 0.06 -0.28 -0.52 -0.16
GFDLNEYGIS	VIYADGVRTAYADSVK	GNVAGTFDF	-0.13 0.38 -0.02 -0.20 -0.39 0.23
GFDLEEMGIS	VIYADGARKVYTNSVK	GGFGGQMNV	1.49 0.32 1.80 n.d. 0.31 1.07
GFDLNEYGIS	VIYADGKRTAYADSVK	GNEAGTFDT	-0.27 -0.80 -0.77 -0.83 -0.74 -0.30
GFDLNEYGIS	VIYADGMRTFYTDSVK	GETAGTFDN	-0.57 -0.40 -0.69 -0.73 -0.92 -0.74
GYDLQDYGIS	VIYADGVRAFYHDSVK	GQLAGIFLL	n.d. n.d. n.d. n.d. n.d. n.d.
GFTLDEYGIS	VIYADGVRVEYADSVK	GSHGLYLML	n.d. n.d. n.d. n.d. n.d. n.d.
GFNLDEYGIS	VIYADGMRTFYSDNVK	GEVAGTFDI	-0.42 -0.89 -0.89 -0.76 -0.94 -0.60
GFPLDEYGIS	VIYADGVRKAYANSVK	GQQTFFIRT	n.d. n.d. n.d. n.d. n.d. n.d.
GFEIQEYGIS	VIYADGRRTAYAENVK	GTWAGTLST	1.23 0.62 1.15 1.81 0.61 1.87
GFNLNEYGIS	VIYADGKRTFYADSVK	GEHAGSFDI	-0.03 0.36 -0.17 -0.96 0.07 -0.56
GFQLDEYGIS	VIYADGRRTFYSDSVK	GEVAGTFDV	0.32 -0.13 -0.25 0.12 -0.03 -0.12
GFDLNEYGIS	VIYADGMRTYYADSVK	GENAGTFDT	-0.63 -0.50 -0.36 -0.81 -0.58 0.99
GFNLNEYGIS	VIYADGRRTFYADSVK	GEHAGSFDV	-0.17 -0.10 -0.17 -0.92 -0.64 -0.52
GFDLVEYGIS	VIYADGQRTAYADTVK	GHHGGIFFM	n.d. n.d. n.d. n.d. n.d. n.d.
GFDINEYGIS	VIYADGRRTFYADSVK	GQTAGTFDT	-0.17 -0.45 -0.74 -0.99 -1.08 -0.38
GFDLDEYGIS	VIYADGKRTAYADNVK	GNVAGTFDL	-0.76 -0.62 -0.97 -1.22 -1.02 -0.60
GFDLNEYGIS	VIYADGKRTAYTDSVK	GEVAGTFDV	-0.38 -0.56 -0.38 -0.47 -0.79 -0.33
GFDLNEYGIS	VIYADGMRTGYQQQVK	GYHSGGLNQ	n.d. n.d. n.d. n.d. n.d. n.d.
GFDVDQYGIS	VIYADGKRSMYADKVK	GVIADGMMV	n.d. n.d. n.d. n.d. n.d. n.d.
GFDLDEYGIS	VIYADGMRTAYADKVK	GNVAGTFDI	-0.41 -0.60 -1.12 -0.54 -0.50 -0.84

Repeated from above, the 4 best binders with a signal in all replicates:

| CDR-H1 | CDR-H2 | CDR-H3 | log10 Kd, replicates |
|---|---|---|---|
| GFDLNEYGIS | VIYADGMRTSYADSVK | GSNAGTFDV | -0.92 -1.39 -0.70 -1.71 0.06 -1.19 |
| GFDLDEYGIS | VIYADGKRTAYADNVK | GNVAGTFDL | -0.76 -0.62 -0.97 -1.22 -1.02 -0.60 |
| GFNLDEYGIS | VIYADGMRTFYSDNVK | GEVAGTFDI | -0.42 -0.89 -0.89 -0.76 -0.94 -0.60 |
| GFDLNEYGIS | VIYADGVRTFYTDSVK | GNVAGTFDV | -0.93 -0.46 -0.75 -0.84 -0.77 -0.30 |

Empty control strains, which show no peptide, gave a signal in 1% of pairings with all heavy chain designs; the median was 2.08 and 95% of these signals were weaker than 0.84. No background was subtracted.
In the paper, a design with two or fewer of six values counts as a poor binder.

The measurements come from Li et al. 2023 (doi:10.1038/s41467-023-39022-2) through the FLAb antibody collection.